For assay [1], the species on record is Homo sapiens. The assay is described as follows: Selectivity ratio of Ki for human delta opioid receptor to Ki for human kappa opioid receptor.
Assay [2] concerns the target Mu-type opioid receptor (Homo sapiens, UniProt P35372). Description: Antagonist activity at human mu opioid receptor transfected in CHO cells assessed as inhibition of […] [35S]GTPgammaS binding after 60 mins by scintillation counting analysis relative to control. The assay is classed as functional, cell-based.

The chains behind the UniProt entries cited, without tags or fusion partners.
UniProt P35372, whole entry: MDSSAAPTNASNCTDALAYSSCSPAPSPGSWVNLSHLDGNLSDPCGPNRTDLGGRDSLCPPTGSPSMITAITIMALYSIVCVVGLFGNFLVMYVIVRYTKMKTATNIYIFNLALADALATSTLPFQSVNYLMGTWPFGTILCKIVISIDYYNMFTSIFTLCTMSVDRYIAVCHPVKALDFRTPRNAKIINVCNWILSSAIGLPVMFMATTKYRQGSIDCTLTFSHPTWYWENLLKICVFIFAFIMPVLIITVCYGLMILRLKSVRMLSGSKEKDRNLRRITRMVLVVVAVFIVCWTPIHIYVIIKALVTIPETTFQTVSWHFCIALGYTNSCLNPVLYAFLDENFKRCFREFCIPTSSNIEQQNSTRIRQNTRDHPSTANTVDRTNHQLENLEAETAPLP

The values that follow come from ChEMBL document CHEMBL3085732, “Synthesis and pharmacological evaluation of aminothiazolomorphinans at the mu and kappa opioid receptors” (J Med Chem, 2013).

Activity calls are given as the source filed them. The calls are words filed in the database; no cut-off is given here.

On to `Oc1ccc2c(c1)[C@@]13CCCC[C@H]1[C@@H](C2)N(CC1CCC1)CC3` [BUTORPHAN], for which the Ratio Ki in assay [1] was determined as 75.

Turning to `CNc1nc2cc3c(cc2s1)C[C@@H]1[C@@H]2CCCC[C@]32CCN1CC1CC1`, in assay [2], the Imax result was “inactive”.

As for `CCNc1nc2cc3c(cc2s1)C[C@@H]1[C@@H]2CCCC[C@]32CCN1CC1CC1`, the Imax result in assay [2] is “inactive”.
